Results as given in patent US5869602A, “Peptide derivatives” (Novo Nordisk A/S, priority 1995, dated 1999).

Conditions: subcutaneous injection in pigs, external γ-counter

Arg^4,Arg^9,Lys^15 (N^ε -tetradecanoyl) somatostatin [Example 4]
T50% (time when 50% of the 125I-labelled peptide has disappeared from the site of injection): 1.7 ± 0.5 h
